Values of other authors, collected in patent publication US20150001139A1, “REAL-TIME INTEGRITY MONITORING OF SEPARATION MEMBRANES” (THE REGENTS OF THE UNIVERSITY OF CALIFORNIA, priority 2013, published 2015).

Settings: cited from earlier work

SMILES	Solubility in Water
O=S(=O)([O-])c1cc(Nc2nc(Nc3ccccc3)nc(N(CCO)CCO)n2)ccc1/C=C/c1ccc(Nc2nc(Nc3ccccc3)nc(N(CCO)CCO)n2)cc1S(=O)(=O)[O-].[Na+].[Na+] [Fluorescent brightener 28]	very soluble
O=C([O-])c1ccccc1-c1c2ccc(=O)cc-2oc2cc([O-])ccc12.[Na+].[Na+] [Uranine]	40 mg/mL
